Results on 1 substance are retold here after paper PMC11372837, “Albumin-Mediated Drug Uptake by Organic Anion Transporter 1/3 Is Real: Implications for the Prediction of Active Renal Secretion Clearance” (Molecular Pharmaceutics, 2024).

Like-named read-outs stand apart in the source and are kept apart here.

The target of one assay is surface of ciPTEC. Description: Facilitated-dissociation model fit: dissociation constant between albumin and the surface of ciPTEC (Kd,m). The format is binding, human. An excerpt:
By assuming that the ratio of CLb,int to CLint,u(−HSA) and Bmax are ligand-independent constants, eq 5 may be further reduced to [drawing 6] 6 EFD is a ligand-independent constant representing the extent of facilitated dissociation [drawing 7] for each transporter.[22] […] Afterward, Kd,m of ciPTEC-OAT1 was assumed equal to ciPTEC-OAT3 in order to estimate the EFD for OAT1.

In another assay the target is human hepatocytes. Particulars: cited from earlier work.
The target of a further assay is rat hepatocytes. Set-up: method as in PMID 3418494. Particulars: cited from earlier work.

For “albumin: human serum albumin, the major plasma protein, added to the uptake buffer at 1 and 4%”, the Kd on surface of ciPTEC (estimates from eqs 4 and 6) was 520 to 542 µM; at surface of ciPTEC (full facilitated-dissociation model (eq 4), active and passive uptake) it was 581 ± 243 µM; at surface of ciPTEC (full facilitated-dissociation model (eq 4), active uptake only), 542 ± 217 µM; at surface of ciPTEC (reduced facilitated-dissociation model (eq 6), OAT3 R values), 520 ± 434 µM; on human hepatocytes (Hepatocytes-OATP1B1/3, published estimate, ref SI 10) it was 46 µM; at human hepatocytes (human hepatocytes) it was 45.2 µM. At rat hepatocytes, the Kd is 157 µM.

The Kd is the equilibrium constant for the complex coming apart.
